Measurements taken from patent publication US5760000A (University Technologies International,Inc., priority 1994, dated 1998).

Target: T1, normal pituitary cell GnRH receptors (Rattus norvegicus, UniProt P30969)
T1 construct: normal pituitary cell GnRH receptors; from tissue; host or cells: normal rat pituitary
T1 sequence (P30969 1-327): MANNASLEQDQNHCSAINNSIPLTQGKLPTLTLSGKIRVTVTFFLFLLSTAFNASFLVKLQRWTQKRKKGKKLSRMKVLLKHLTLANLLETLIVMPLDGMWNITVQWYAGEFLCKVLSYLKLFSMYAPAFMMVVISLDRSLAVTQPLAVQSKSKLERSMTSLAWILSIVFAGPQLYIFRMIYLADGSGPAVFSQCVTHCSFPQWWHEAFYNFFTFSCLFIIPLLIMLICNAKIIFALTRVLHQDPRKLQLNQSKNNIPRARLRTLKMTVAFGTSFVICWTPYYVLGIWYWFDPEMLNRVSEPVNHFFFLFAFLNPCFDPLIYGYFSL
Assay: GnRH binding, normal rat pituitary
Settings: Labeled ligand 125I-[D-Lys6]-GnRH, 95% confidence interval in parentheses, read-out: Receptor Binding Activity (Kd, nM) Normal Rat
Description: The displacement curves were fitted for both single and two classes of binding sites by computer calculated lines, as described.
Data analysis was performed as described.

CC(C)C[C@H](NC(=O)[C@@H](CCCCN)NC(=O)[C@H](Cc1ccc(O)cc1)NC(=O)[C@H](CO)NC(=O)[C@H](Cc1c[nH]c2ccccc12)NC(=O)[C@H](Cc1cnc[nH]1)NC(=O)[C@@H]1CCC(=O)N1)C(=O)N[C@@H](CCCNC(=N)N)C(=O)N1CCC[C@H]1C(=O)NCC(N)=O [[D-Lys^6]-GnRH, pGlu-His-Trp-Ser-Tyr-DLys-Leu-Arg-Pro-Gly-NH2]
Kd: 0.097 nM
